Reference: ChEMBL document CHEMBL1153121, “2-Arylbenzoxazoles as CETP inhibitors: Substitution of the benzoxazole moiety” (Bioorg Med Chem Lett, 2010)

Target: Cholesteryl ester transfer protein (Homo sapiens) (UniProt P11597)
Experiment: inhibition of human CETP assessed as cholesteryl ester transfer by fluorescence transfer assay relative to control
Design: concentration or dose not given beside the values
Settings: concentration not given here

- inhibition: 32%
SMILES: Cc1ccccc1OCC(=O)Nc1ccc(-c2nc3ccc(Cl)cc3o2)cc1
